System: human μ opioid receptor expressed in HEK293 cells
Test: Binding competition assay (TR-FRET/HTRF) between native human μ opioid receptor and water-soluble variants, with a fluorescent naltrexone-derived antagonist
Details: negative control added instead of a water-soluble variant
Text: FIG. 7. […] Data is used to calculate HTRF ratios, and represent the mean±standard error of mean of quadruplicates. ΔF is used for the comparison of different runs of the same assay which reflects the signal to background of the assay. ΔF=[(Ratiosample−Ratiobackgroud)/Ratiobackgroud] (%).
A recently developed methodology which uses a fluorescently labeled ligand and the native MUR was used to investigate the ligand-binding capabilities of the water-soluble receptors.

For “human serum albumin [HSA, reference compound]”, the “change in the fluorescence ratio (665 nm/620 nm)” value was “no significant change”.
